Target: recombinant human CL receptor/RAMP1 (Homo sapiens (Human), UniProt O60894+Q16602)
Assay: Recombinant receptor binding assay (125I-hCGRP)
Conditions: exemplary compounds of the invention; 10 pM 125I-hCGRP, membranes of HEK 293 cells
Method: Human CL receptor (Genbank accession number L76380) was subcloned into the expression vector pIREShyg2 (BD Biosciences Clontech) as a 5′NheI and 3′ PmeI fragment. Human RAMP1 (Genbank accession number AJ001014) was subcloned into the expression vector pIRESpuro2 (BD Biosciences Clontech) as a 5′NheI and 3′NotI fragment. HEK 293 cells (human embryonic kidney cells; ATCC #CRL-1573) were cultured in DMEM with 4.5 g/L glucose, 1 mM sodium pyruvate and 2 mM glutamine supplemented with 10% fetal bovine serum (FBS), 100 units/mL penicillin and 100 µg/mL streptomycin, and maintained at 37° C. and 95% humidity. Cells were subcultured by treatment with 0.25% trypsin with 0.1% EDTA in HBSS. Stable cell line generation was accomplished by co-transfecting 10 μg of DNA with 30 μg Lipofectamine 2000 (Invitrogen) in 75 cm^2 flasks. CL receptor and RAMP1 expression constructs were co-transfected in equal amounts. […]
The cell suspension was disrupted with a laboratory homogenizer and centrifuged at 48,000 g to isolate membranes. […] Scintillation fluid was added and the plates were counted on a Topcount (Packard). Non-specific binding was determined and the data analysis was carried out with the apparent dissociation constant (Ki) determined by using a non-linear least squares fitting the bound CPM data to the equation below: […]

By UniProt entry, the sequences of proteins in these tests, tags left out. Residues count along the entry.
UniProt O60894, 27-148: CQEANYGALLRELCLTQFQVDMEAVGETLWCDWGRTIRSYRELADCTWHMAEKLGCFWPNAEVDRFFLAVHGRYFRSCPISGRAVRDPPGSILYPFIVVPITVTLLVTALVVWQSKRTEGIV
UniProt Q16602, 23-461: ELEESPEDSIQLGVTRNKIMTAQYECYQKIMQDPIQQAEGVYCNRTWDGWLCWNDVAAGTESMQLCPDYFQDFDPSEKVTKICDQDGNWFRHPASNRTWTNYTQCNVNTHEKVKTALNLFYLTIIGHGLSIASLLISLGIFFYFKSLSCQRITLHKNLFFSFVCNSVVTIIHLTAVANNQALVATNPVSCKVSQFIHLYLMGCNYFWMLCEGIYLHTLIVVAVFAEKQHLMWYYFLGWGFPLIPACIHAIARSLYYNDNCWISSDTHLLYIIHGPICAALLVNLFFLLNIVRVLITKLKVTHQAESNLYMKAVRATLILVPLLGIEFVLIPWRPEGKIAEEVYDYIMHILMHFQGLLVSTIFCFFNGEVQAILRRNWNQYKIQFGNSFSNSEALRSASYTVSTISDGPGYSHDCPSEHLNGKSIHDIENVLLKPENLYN

Question: How did the Ki turn out when C[C@@H]1[C@H](c2ccccc2)C[C@H](NC(=O)c2cnc3c(c2)C[C@@]2(C3)C(=O)Nc3ncccc32)C(=O)N1CC1(C(F)(F)F)CC1 [Example 26] was run?
Answer: 93 pM

Reference: patent US9833448B2, “Piperidinone carboxamide azaindane CGRP receptor antagonists” (Merck Sharp & Dohme Corp., priority 2010, dated 2017)
